Target: T1, α1A adrenergic receptor (Homo sapiens, UniProt P35348)
T1 sequence (P35348 1-466): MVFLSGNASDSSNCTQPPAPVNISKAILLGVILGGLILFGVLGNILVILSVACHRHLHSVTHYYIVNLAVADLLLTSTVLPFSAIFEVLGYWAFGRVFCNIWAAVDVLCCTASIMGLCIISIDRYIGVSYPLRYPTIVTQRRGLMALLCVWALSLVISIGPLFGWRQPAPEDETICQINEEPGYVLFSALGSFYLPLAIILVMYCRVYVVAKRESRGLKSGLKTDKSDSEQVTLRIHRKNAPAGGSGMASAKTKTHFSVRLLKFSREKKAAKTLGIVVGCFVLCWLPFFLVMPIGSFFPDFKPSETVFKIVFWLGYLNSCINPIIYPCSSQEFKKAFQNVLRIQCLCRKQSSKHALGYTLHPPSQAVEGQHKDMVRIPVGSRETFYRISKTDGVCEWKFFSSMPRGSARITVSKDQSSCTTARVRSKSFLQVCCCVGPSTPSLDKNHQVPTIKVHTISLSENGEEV
Assay: SelectScreen cell-based GPCR profiling, α1A agonist assay
Conditions: classification in words from Table 1 EC50 values; insignificant β2 activity = EC50 greater than about 500 nM
Method: 32 μL of cell suspension (10,000 cells) were added to each well of a 384-well TC-Treated assay plate. Cells in Assay Media were incubated for 16-24 hours in the plate at 37° C./5% CO2 in a humidified incubator. […] 4 μL of Assay Media was added to all wells to bring the final assay volume to 40 μL. The plate was incubated for 5 hours at 37° C./5% CO2 in a humidified incubator. 8 μL of 1 μM Substrate+Loading Solution was added to each well and the plate was incubated for 2 hours at room temperature. The plate was read on a fluorescence plate reader.

CC(Oc1ccccc1C1CCCC1)C1=NCCN1 (stereo not shown) [Compound III]
selectivity of agonism (α1A and/or α2A EC50 less than 1,000 nM and insignificant activity at β2): selective α1A and α2A receptor agonist

Reference: patent US20160122305A1, “Topical Compositions and Methods of Use Thereof” (Avon Products, Inc., priority 2014, published 2016)
